# Measured affinities in a library of Ab-95 light chain variants

Data: MIT Lincoln Laboratory AlphaSeq set, Engelhart et al. 2022, doi:10.1038/s41597-022-01779-4, as distributed in FLAb.

Antigen: PDVDLGDISGINAS, a 14-residue peptide of the SARS-CoV-2 spike HR2 region.

Parent: Ab-95, a human scFv built as VH, a (GGGGS)3 linker, VL. Only the CDRs of the light chain vary.
VH: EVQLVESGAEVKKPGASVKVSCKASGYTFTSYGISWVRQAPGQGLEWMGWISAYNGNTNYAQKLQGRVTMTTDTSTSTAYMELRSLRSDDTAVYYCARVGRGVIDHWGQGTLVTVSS
VL: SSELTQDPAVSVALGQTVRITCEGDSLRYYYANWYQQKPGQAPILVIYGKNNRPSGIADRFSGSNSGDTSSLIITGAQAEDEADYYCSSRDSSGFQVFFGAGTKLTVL

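The parent was found by panning a naive human phage display library on the peptide. Variants in AAYL52 differ from the parent at up to three CDR positions; double and triple changes were sampled at random. In AlphaSeq, yeast of one mating type display the scFv and yeast of the other type display the target. The frequency of each diploid, read from paired DNA barcodes, reflects how well the two displayed proteins bind. Read counts were normalised to the haploid input and turned into Kd by a linear fit to BCL2-family pairs of known affinity, for each replicate. There are three technical replicates.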

Substitutions are numbered in sequence along the VL above, starting at 1 (not Kabat).
Values are log10 of the apparent Kd in nM; lower means stronger binding.
Replicates are averaged; those with no signal do not enter the mean.
Where no diploid with the target was found in that replicate, the entry reads "n.d.": below detection, most likely a poor binder, though not proof of it.
Three control strains display no target. For library AAYL52, 28% of the pairings with them gave a signal, with a median of 3.91 and one signal in twenty below 2.90, so weak values seen in few replicates may be background. The control count says in how many pairings with the empty strains this scFv gave a signal, with their mean in brackets.

{"changes": "R28Q A32G S89C", "log10 Kd, replicates": "2.85 / 3.53 / 3.42", "log10 Kd (nM), mean": "3.27", "control signals": "2 of 9 (4.36)"}
{"changes": "D25H R28K A32K", "log10 Kd, replicates": "n.d. / n.d. / n.d.", "log10 Kd (nM), mean": "n.d.", "control signals": "2 of 9 (3.68)"}
{"changes": "L27S S89P F95L", "log10 Kd, replicates": "n.d. / n.d. / n.d.", "log10 Kd (nM), mean": "n.d.", "control signals": "0 of 9"}
{"changes": "D25V Y30C A32Q", "log10 Kd, replicates": "n.d. / 3.76 / n.d.", "log10 Kd (nM), mean": "3.76", "control signals": "0 of 9"}
{"changes": "R28S G49K P54W", "log10 Kd, replicates": "3.65 / n.d. / n.d.", "log10 Kd (nM), mean": "3.65", "control signals": "2 of 9 (2.86)"}
{"changes": "S93D F95K V97Y", "log10 Kd, replicates": "3.52 / n.d. / 4.37", "log10 Kd (nM), mean": "3.95", "control signals": "3 of 9 (3.93)"}
{"changes": "K50G N52Y R90W", "log10 Kd, replicates": "3.43 / 5.49 / 3.37", "log10 Kd (nM), mean": "4.10", "control signals": "2 of 9 (3.39)"}
{"changes": "D25I L27V G94M", "log10 Kd, replicates": "n.d. / 3.15 / 2.46", "log10 Kd (nM), mean": "2.81", "control signals": "5 of 9 (3.85)"}
{"changes": "K50L N52H D91M", "log10 Kd, replicates": "n.d. / n.d. / n.d.", "log10 Kd (nM), mean": "n.d.", "control signals": "1 of 9 (3.55)"}
{"changes": "G24W S89R F95V", "log10 Kd, replicates": "2.79 / n.d. / 4.10", "log10 Kd (nM), mean": "3.45", "control signals": "5 of 9 (3.77)"}
{"changes": "E23W D25W S55Q", "log10 Kd, replicates": "n.d. / n.d. / n.d.", "log10 Kd (nM), mean": "n.d.", "control signals": "1 of 9 (5.19)"}
{"changes": "L27Q R53Q", "log10 Kd, replicates": "3.65 / n.d. / n.d.", "log10 Kd (nM), mean": "3.65", "control signals": "1 of 9 (4.06)"}
{"changes": "Y31K G49P F95C", "log10 Kd, replicates": "5.23 / 4.52 / 3.51", "log10 Kd (nM), mean": "4.42", "control signals": "2 of 9 (4.82)"}
{"changes": "D25N Y29G V97A", "log10 Kd, replicates": "1.82 / 1.80 / 1.21", "log10 Kd (nM), mean": "1.61", "control signals": "3 of 9 (3.93)"}
{"changes": "Y31H F95A", "log10 Kd, replicates": "1.87 / 1.79 / 1.37", "log10 Kd (nM), mean": "1.68", "control signals": "2 of 9 (4.91)"}
{"changes": "P54F S55L S89Y", "log10 Kd, replicates": "4.01 / n.d. / n.d.", "log10 Kd (nM), mean": "4.01", "control signals": "1 of 9 (4.36)"}
{"changes": "S55R S92R G94P", "log10 Kd, replicates": "n.d. / n.d. / 3.99", "log10 Kd (nM), mean": "3.99", "control signals": "2 of 9 (4.07)"}
{"changes": "R28D R90Q V97A", "log10 Kd, replicates": "2.54 / 2.72 / 2.30", "log10 Kd (nM), mean": "2.52", "control signals": "4 of 9 (3.68)"}
{"changes": "E23K N33Q N52T", "log10 Kd, replicates": "n.d. / 2.95 / 2.57", "log10 Kd (nM), mean": "2.76", "control signals": "3 of 9 (3.26)"}
{"changes": "E23H L27P S92K", "log10 Kd, replicates": "2.62 / 2.64 / 2.49", "log10 Kd (nM), mean": "2.58", "control signals": "6 of 9 (4.05)"}
{"changes": "Y29W Y30H D91K", "log10 Kd, replicates": "4.57 / 4.13 / n.d.", "log10 Kd (nM), mean": "4.35", "control signals": "4 of 9 (4.19)"}
{"changes": "R53N S89R F95V", "log10 Kd, replicates": "3.50 / 3.48 / n.d.", "log10 Kd (nM), mean": "3.49", "control signals": "4 of 9 (3.72)"}
{"changes": "E23I S26P S92I", "log10 Kd, replicates": "2.74 / 3.18 / 3.00", "log10 Kd (nM), mean": "2.97", "control signals": "1 of 9 (4.85)"}
{"changes": "K50C P54V S55L", "log10 Kd, replicates": "5.45 / n.d. / n.d.", "log10 Kd (nM), mean": "5.45", "control signals": "4 of 9 (3.42)"}
{"changes": "A32L N51W", "log10 Kd, replicates": "n.d. / n.d. / n.d.", "log10 Kd (nM), mean": "n.d.", "control signals": "1 of 9 (3.48)"}
{"changes": "S26E R90I Q96Y", "log10 Kd, replicates": "n.d. / n.d. / 4.13", "log10 Kd (nM), mean": "4.13", "control signals": "3 of 9 (3.78)"}
{"changes": "L27W N33F S93I", "log10 Kd, replicates": "4.28 / n.d. / 4.19", "log10 Kd (nM), mean": "4.24", "control signals": "4 of 9 (4.07)"}
{"changes": "G24H Q96L", "log10 Kd, replicates": "3.28 / 3.00 / 2.49", "log10 Kd (nM), mean": "2.92", "control signals": "1 of 9 (3.52)"}
{"changes": "G49S S89H", "log10 Kd, replicates": "4.08 / n.d. / n.d.", "log10 Kd (nM), mean": "4.08", "control signals": "3 of 9 (4.57)"}

Excerpt, the first 2 entries:

{"changes": "R28Q A32G S89C", "log10 Kd, replicates": "2.85 / 3.53 / 3.42", "log10 Kd (nM), mean": "3.27", "control signals": "2 of 9 (4.36)"}
{"changes": "D25H R28K A32K", "log10 Kd, replicates": "n.d. / n.d. / n.d.", "log10 Kd (nM), mean": "n.d.", "control signals": "2 of 9 (3.68)"}

In this assay the parent's reference entry averaged 2.31; its copy inside this library read 2.25.